Assay results taken from PubChem BioAssay AID2806 (Sanford-Burnham Center for Chemical Genomics, 2010).
The list shows a part of the results, in another mix than the full data. Some tests of the compounds listed are not included; inactive here does not mean inactive elsewhere. The source made the active and inactive calls.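 How the source made its calls: active means inhibition of at least 40% at 10 µM in the primary screen; inactive means the rest.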

What follows are compounds tested on intestinal alkaline phosphatase [Mus musculus] (assay: inhibitors of mouse IAP, primary screen, biochemical, luminescence, uHTS (AID 2806;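 further: plate controls were DMSO with enzyme for no effect and no enzyme wells for full effect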)). Conditions: purified mouse IAP, CDP-Star luminescence, 30 min; at 10 µM; stronger effect = higher value.
For `COc1cc(C(=O)NCC2(N(C)C)CCCCC2)c([N+](=O)[O-])cc1OC`, the inhibition was inactive: -3.7%.
With `CN(C)C1(CNC(=O)c2ccc(Br)cc2)CCCCC1` the inhibition was inactive: -12.1%.
With `O=C(NCC1(N2CCCCC2)CCCCC1)c1cccc(Cl)c1` the inhibition was inactive: -1%.
For `COc1cccc(C(=O)NCC2(N3CCCCC3)CCCCC2)c1`, the inhibition was inactive: 6.6%.
`COc1ccc(Cl)cc1C(=O)NCC1(N(C)C)CCCCC1` was tested, and the inhibition was inactive: -3.7%.
In the case of `O=C(OC1CN2CCC1CC2)C(CO)(c1ccccc1)c1ccccc1` (centres undefined), the inhibition is reported as inactive: -3.7%.
For `CN(C)c1cccc(C(=O)NCC2(N(C)C)CCCCC2)c1`, the inhibition was inactive: 4%.
For `CC(C)Oc1ccc(C(=O)NCC2(N(C)C)CCCCC2)cc1`, the inhibition was inactive: -1.2%.
`COc1ccc(Br)c(C(=O)NCC2(N3CCCCC3)CCCCC2)c1` was tested, and the inhibition was inactive: 4.4%.
For `CN1[C@@H]2CC[C@H]1CC(OC(=O)C(O)(c1ccccc1)c1ccccc1)C2` (some centres undefined), the inhibition was inactive: -5.3%.
In the case of `O=C(NCC1(N2CCCCC2)CCCCC1)c1cc([N+](=O)[O-])ccc1Cl`, the inhibition is reported as inactive: 4.1%.
In the case of `Cc1ccc(C(=O)NCC2(N3CCCCC3)CCCCC2)cc1`, the inhibition is reported as inactive: -0.5%.
`CC(C)N1C(=O)CC2(CCN(CCOC(=O)C(O)(c3ccccc3)c3ccccc3)CC2)C1=O` was tested, and the inhibition was inactive: -2.2%.
`CCN(CC)CC(C)C(C)OC(=O)C(O)(c1ccccc1)c1ccccc1` (centres undefined) was tested, and the inhibition was inactive: 1.8%.
For `COc1cc(SC)ccc1C(=O)NCC1(N(C)C)CCCCC1`, the inhibition was inactive: -4%.
For `Cc1ccccc1C(=O)NCC1(N2CCCCC2)CCCCC1`, the inhibition was inactive: -0.5%.
With `CN(C)c1ccc(C(=O)NCC2(N(C)C)CCCCC2)cc1` the inhibition was inactive: -2.7%.
With `CN(C)C1CCCC1OC(=O)C(O)(c1ccccc1)c1ccccc1` (centres undefined) the inhibition was inactive: -7%.
`CCN1CCCC(OC(=O)C2(O)c3ccccc3C=Cc3ccccc32)C1` (centres undefined) was tested, and the inhibition was inactive: 0%.
In the case of `Cc1cc(C(=O)NCC2(N3CCCCC3)CCCCC2)ccc1[N+](=O)[O-]`, the inhibition is reported as inactive: -6.2%.
`O=C(NCC1(N2CCCCC2)CCCCC1)c1cccc(Br)c1` was tested, and the inhibition was inactive: -6.7%.
`COc1ccc(C(=O)NCC2(N(C)C)CCCCC2)cc1` was tested, and the inhibition was inactive: -2.7%.
In the case of `C=CCN1CCN(CCOC(=O)C(O)(c2ccccc2)c2ccccc2)CC1`, the inhibition is reported as inactive: -5.9%.
In the case of `O=C(NCC1(N2CCCCC2)CCCCC1)c1cc(F)c(F)cc1Cl`, the inhibition is reported as inactive: -0.2%.
